Compounds with a hit are over-represented: about 1.5% of the library has one in this group of screens.
RAD54 branch – inhibitors of human RAD54 branch migration | Q92698 | RAD54 Holliday junction branch migration, FAM/BHQ fluorescence | inhibition, % at 10.4 µM | actives 0.14% (n = 360,000);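 active = mean normalized replicate activity at least 40 and at least half of replicates scoring 40 or more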;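 note: 0% = median of neutral control wells and 100% = median of positive control wells; inhibitors cause a drop in the FAM fluorescence signal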
GSIS activator – GLuc luminescence reporter in INS-1E cells, primary screen for activators of glucose-dependent secretion of insulin. activation, % at 16.6 µM. actives 0.61% (n = 370,000). AID 743287. INS-1E GLuc reporter insulin secretion, 2-3 h;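 active = lowest replicate activation of at least 40%, so every replicate reaches that level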;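 note: 0% = median of neutral control wells and 100% = median of IBMX positive control wells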
PglD DTNB – PglD (C. jejuni) enzyme inhibition; inhibition, % at 12.5 µM; purified PglD enzyme, DTNB colorimetric CoA detection; actives 0.098% (n = 360,000); in the data active = inhibition above about 16%, passing the limit was not always enough
Yeast UUG start – modulators of yeast start codon fidelity, primary screen, whole organism, S. cerevisiae, single point, plate reader; S. cerevisiae UUG-firefly luciferase reporter, luminescence/redox ratio; activity score, % at 18.7 µM; actives 0.13% (n = 350,000); AID 602363, 2012;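 active = replicate mean at a twofold rise or more, about +100% in these data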;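 also: firefly luciferase made from a UUG start codon reports start codon fidelity; reporter light over untreated wells divided by growth signal over untreated wells; some hits fall short of that in this replicate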
RAD52 inh – blocks human RAD52 DNA annealing | recombinant RAD52 DNA annealing, FRET fluorescence | inhibition, % at 18.7 µM | actives 0.46% (n = 360,000);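 active = every replicate showing at least 50% inhibition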
Casp6 inh – blocks human caspase-6 cleavage activity; inhibition, % at 12.5 µM; purified caspase-6, Z-VEID-R110 cleavage fluorescence; AID 686996; actives 0.53% (n = 350,000);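 active = mean inhibition across replicates at least about 35%, with every replicate also reaching that limit, limit read from the data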;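 note: 0% = median of neutral control wells and 100% = no fluorescence left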
An asterisk follows results filed as active; . = no result; ! = not active in a repeat.

[1] CCCCn1c(NC(C)CC)nc2c1c(=O)[nH]c(=O)n2C (configuration not stated)
[2] CC(C)CCn1c(N2CCCC2)nc2c1c(=O)[nH]c(=O)n2C
[3] COc1cc(/C=N/Nc2ccccc2)ccc1OC(=O)c1cccs1
[4] COc1ccccc1-c1ccc(C2[C@H]3CNC[C@@H]2N3Cc2cc(-c3ccccc3)on2)cc1 (some centres not stated)
[5] N#Cc1cccc(-c2ccc(C3[C@H]4CNC[C@@H]3N4Cc3cc(-c4ccccc4)on3)cc2)c1 (some centres not stated)
[6] C/C=C/c1ccc(C2[C@H]3CNC[C@@H]2N3Cc2cc(-c3ccccc3)on2)cc1 (some centres not stated)
[7] C/C=C/c1ccc(C2[C@H]3CNC[C@@H]2N3Cc2nccs2)cc1 (some centres not stated)
[8] O=C(NCc1ccc2c(c1)OCO2)c1ccc(S(=O)(=O)N2CCCCC2)cc1
Screen / compound no.	1	2	3	4	5	6	7	8
RAD54 branch	3	-5	.	.	.	.	.	-2
GSIS activator	129*	46*	-8	-2	72*!	72*!	3	.
PglD DTNB	-4	-3	.	.	.	.	.	-7
Yeast UUG start	9	-10	.	.	.	.	.	8
RAD52 inh	.	6	.	54*	63*	52*!	-6	.
Casp6 inh	.	-5	.	1	-4	3	-1	.

[9] CCCN1C(=O)C(O)(C/C(C)=N/O)c2ccccc21 (configuration not stated)
[10] CC(C)Cn1nc(NC(=O)c2ccco2)c2cc3ccccc3nc21
[11] CCn1nc(NC(=O)c2ccco2)c2cc3ccccc3nc21
[12] CC(=O)c1ccc(OCC(=O)N(C2CCCCC2)C2CCS(=O)(=O)C2)cc1 (configuration not stated)
[13] COc1ccc(NC(=O)N(C)[C@H]2C[C@H]3c4[nH]c5ccccc5c4CCN3C(=O)[C@H]2[C@H](C)O)cc1
[14] C[C@H](O)[C@@H]1C(=O)N2CCc3c([nH]c4ccccc34)[C@@H]2C[C@@H]1N(C)C(=O)Nc1cccc2ccccc12
[15] Cc1cccc(C(C)C)c1NC(=O)COC(=O)CCC(=O)N(CC(C)C)c1c(N)n(CC(C)C)c(=O)[nH]c1=O
[16] O=[N+]([O-])c1cc2c(cc1/C=N/NS(=O)(=O)c1ccc(Br)cc1)OCO2
Screen / compound no.	9	10	11	12	13	14	15	16
RAD54 branch	-9	.	19	.	.	0	1	.
GSIS activator	50*	74*	44*	54*	5	-6	-22	27
PglD DTNB	-3	.	0	.	.	-2	-1	.
Yeast UUG start	-6	.	-12	.	.	3	0	.
RAD52 inh	.	-54	.	-16	-15	-41	-9	2
Casp6 inh	.	-3	.	3	5	82*	-2	44*

[17] Cc1ccc(S(=O)(=O)N/N=C\c2cc3c(cc2Br)OCO3)cc1
[18] Cn1cccc1C(C#N)(CC#N)c1cccc(F)c1C#N (configuration not stated)
[19] CC1CCCC(NC(=O)c2cc(S(=O)(=O)N3CCOCC3)ccc2F)C1C (configuration not stated)
[20] CC1CC(C)CN(S(=O)(=O)c2ccc(F)c(C(=O)NC3CCCCC3C)c2)C1 (configuration not stated)
[21] COc1ccccc1NC(=O)c1ccc([N+](=O)[O-])o1
[22] O=C(Nc1ccc(F)cc1)N1CCCCN2[C@@H](CO)[C@@H](c3ccc(C#Cc4ccccc4)cc3)[C@@H]2C1
[23] COc1ccc(NC(=O)N2CCCCN3[C@H](C2)[C@H](c2ccc(C#Cc4ccccc4)cc2)[C@@H]3CO)cc1
[24] COc1ccccc1C#Cc1ccc([C@H]2[C@H]3CN(C(=O)C4CCCC4)CCCCN3[C@H]2CO)cc1
Screen / compound no.	17	18	19	20	21	22	23	24
RAD54 branch	0	.	.	-7	.	15	-1	-7
GSIS activator	-3	20	2	.	-7	44*	.	.
PglD DTNB	6	.	.	-2	.	6	-1	4
Yeast UUG start	-7	.	.	-7	.	0	3	6
RAD52 inh	.	-7	-17	-6	-11	-1	.	22
Casp6 inh	.	3	0	62*	-6	0	.	0

[25] COc1ccccc1C#Cc1ccc([C@@H]2[C@@H](CO)N3CCCCN(C(=O)C4CCCC4)C[C@H]23)cc1
[26] COc1ccc(NC(=O)N2CCCCN3[C@@H](CO)[C@H](c4ccc(C#Cc5ccccc5)cc4)[C@@H]3C2)cc1
[27] COc1ccc(NC(=O)N2CCCCN3[C@H](C2)[C@@H](c2ccc(C#Cc4ccccc4)cc2)[C@@H]3CO)cc1
[28] O=C(Nc1ccc(F)cc1)N1CCCCN2[C@H](CO)[C@@H](c3ccc(C#Cc4ccccc4)cc3)[C@H]2C1
[29] Cc1ccc(F)c(S(=O)(=O)NC(=O)C2(C)CCN2C(=O)C2(c3ccc(Cl)cc3)CC2)c1 (configuration not stated)
[30] COc1ccc(CNC(=O)COC(=O)c2ccc(Br)c(S(=O)(=O)N3CCOCC3)c2)cc1
[31] CCCc1cc(=O)[nH]c(SCc2ccc(F)cc2)n1
[32] Cc1ccc(-n2cc[nH]c2=S)c(C)c1
Screen / compound no.	25	26	27	28	29	30	31	32
RAD54 branch	-8	-7	7	2	3	1	.	.
GSIS activator	.	.	.	-14	-1	-12	31	3
PglD DTNB	2	2	-2	5	6	-5	.	.
Yeast UUG start	-16	20	28	32	.	3	.	.
RAD52 inh	62*	69*	82*	10	-19	-3	-12	-5
Casp6 inh	0	0	-2	0	0	2	0	-1

Of the compounds above, these contain a cyano group.
[5] N#Cc1cccc(-c2ccc(C3[C@H]4CNC[C@@H]3N4Cc3cc(-c4ccccc4)on3)cc2)c1 (some centres not stated)
[18] Cn1cccc1C(C#N)(CC#N)c1cccc(F)c1C#N (configuration not stated)
Screen / compound no.	5	18
RAD54 branch	.	.
GSIS activator	72*!	20
PglD DTNB	.	.
Yeast UUG start	.	.
RAD52 inh	63*	-7
Casp6 inh	-4	3

Some entries already given with just RAD52 inh and Casp6 inh:
#	canonical_smiles	RAD52 inh	Casp6 inh
26	COc1ccc(NC(=O)N2CCCCN3[C@@H](CO)[C@H](c4ccc(C#Cc5ccccc5)cc4)[C@@H]3C2)cc1	69*	0
27	COc1ccc(NC(=O)N2CCCCN3[C@H](C2)[C@@H](c2ccc(C#Cc4ccccc4)cc2)[C@@H]3CO)cc1	82*	-2

(continued)
[33] COc1ccc(/C=C/C(=O)NC(=S)Nc2ccc(S(N)(=O)=O)cc2)cc1OC
[34] Cc1nc(SCC(=O)O)c(C#N)c2c1CCCC2
[35] Cn1c(CN2CCCC(C(=O)c3ccc4c(c3)OCO4)C2)nc2ccccc21 (configuration not stated)
[36] CO[C@@H]1CN(C)C(=O)c2ccc(NC(=O)C3CC3)cc2OC[C@H](C)N(Cc2ccncc2)C[C@H]1C
[37] Cc1cc(C(=O)COC(=O)c2cc(Cl)c(O)c(Cl)c2)c(C)n1C
[38] Cc1cc(C(=O)COC(=O)c2ccc(F)cc2)c(C)n1C
[39] Cc1ccc(N(C(=O)c2snc(C(N)=O)c2N)C(C(=O)NCC2CCCO2)c2ccc3ncccc3c2)cc1 (configuration not stated)
[40] COc1cc(NC(=O)CN2CCN(c3ccccc3O)CC2)c(C)cc1[N+](=O)[O-]
Screen / compound no.	33	34	35	36	37	38	39	40
RAD54 branch	-7	-3	-8	3	-16	-13	1	.
GSIS activator	44*	-8	12	-3	.	2	7	-15
PglD DTNB	-7	-3	8	6	4	-5	-2	.
Yeast UUG start	-15	6	-12	.	5	-4	-5	.
RAD52 inh	7	-24	.	6	-5	-1	-17	.
Casp6 inh	-1	39*	.	0	58*	1	0	.

[41] COc1ccc(NC(=O)COC(=O)CNC(=O)C2CCCCC2)cc1OC
[42] CC(NC(=S)NC1CCCCC1)c1ccc(C(C)(C)C)cc1 (configuration not stated)
[43] Cc1ccc(C(=O)c2sc(Nc3ccccc3)c(C#N)c2N)cc1
[44] COC(=O)c1ccc(Cn2cnc3c(cnn3-c3ccc(C)c(C)c3)c2=O)o1
Screen / compound no.	41	42	43	44
RAD54 branch	-13	3	.	-7
GSIS activator	59*	-35	43*	6
PglD DTNB	0	1	.	-8
Yeast UUG start	-8	-23	.	-16
RAD52 inh	5	5	.	-18
Casp6 inh	-3	42*	.	2

Screens: PubChem BioAssay, Broad Institute
